Laboratory results published in patent publication US20180186796A1, “COMPOUNDS AND USES THEREOF” (LEAD DISCOVERY SIENA S.R.L., priority 2014, published 2018).
Like-named read-outs stand apart in the source and are kept apart here.

Sequences of proteins named here, by UniProt entry; tags and fusion partners are left off.
UniProt P06241, whole entry, looked up: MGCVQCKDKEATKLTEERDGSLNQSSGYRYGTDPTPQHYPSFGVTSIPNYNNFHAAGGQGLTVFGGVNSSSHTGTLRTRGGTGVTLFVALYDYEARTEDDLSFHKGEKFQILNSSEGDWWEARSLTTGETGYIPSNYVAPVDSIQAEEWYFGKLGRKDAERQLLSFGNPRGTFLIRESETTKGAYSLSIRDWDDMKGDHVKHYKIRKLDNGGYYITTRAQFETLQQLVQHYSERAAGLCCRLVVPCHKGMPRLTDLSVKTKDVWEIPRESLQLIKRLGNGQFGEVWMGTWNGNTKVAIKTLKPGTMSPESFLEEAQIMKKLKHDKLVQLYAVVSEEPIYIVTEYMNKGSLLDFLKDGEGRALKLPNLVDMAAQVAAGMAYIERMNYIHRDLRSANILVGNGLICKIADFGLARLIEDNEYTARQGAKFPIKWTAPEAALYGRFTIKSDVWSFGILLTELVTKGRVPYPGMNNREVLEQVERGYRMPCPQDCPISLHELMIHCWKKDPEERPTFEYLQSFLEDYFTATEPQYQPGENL

Target: recombinant Fyn (Homo sapiens, UniProt P06241)
Test: Enzymatic assay on isolated Fyn kinase
[1] = read-out: Enzymatic Data (Ki, μM) Fyn, mean of at least two experiments

Structure (SMILES)	Ki	Ki (read-out: Ki Fyn)	Ki [1]
CCC(C)Sc1nc(Nc2cccc(Cl)c2)c2cnn(CC(Cl)c3ccccc3)c2n1 (stereo not drawn) [Si148, 6-(Sec-butylthio)-N-(3-chlorophenyl)-1-(2-chloro-2-phenylethyl)-1H-pyrazolo[3,4-d]pyrimidin-4-amine]	7.5 to 16 µM	–	–
ClC(Cn1ncc2c(Nc3ccccc3)nc(SCCN3CCOCC3)nc21)c1ccccc1 (stereo not drawn) [Si192, 1-(2-chloro-2-phenylethyl)-6-((2-morpholinoethyl)thio)-N-phenyl-1H-pyrazolo[3,4-d]pyrimidin-4-amine, reference compound]	7.5 to 16 µM	7.5 µM	–
Cc1ccc(-c2nn(CC(Cl)c3ccccc3)c3ncnc(N)c23)cc1 (stereo not drawn) [Si309, 1-(2-Chloro-2-phenylethyl)-3-(4-methylphenyl)-1H-pyrazolo[3,4-d]pyrimidin-4-amine]	–	0.095 µM	–
CCC(C)Sc1nc(Nc2cccc(Cl)c2)c2cnn(CC(Cl)c3ccccc3)c2n1 (stereo not drawn) [drawing 197]	–	–	12.5 µM
CC(Cn1nc(-c2ccccc2)c2c(N)ncnc21)c1ccccc1 (stereo not drawn) [drawing 204]	–	–	3.35 µM
